Reference: paper PMC8171320, “Modification of amyloid-beta peptide aggregation via photoactivation of strained Ru(II) polypyridyl complexes” (Chemical Science, 2021)

By UniProt entry, the sequences of proteins in these tests, tags left out. Residues count along the entry.
UniProt P05067, 672-713: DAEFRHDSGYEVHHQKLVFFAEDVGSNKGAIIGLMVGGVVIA

Target: T1, amyloid-beta peptide (Aβ1–42 fibrils) (Homo sapiens, UniProt P05067)
T1 construct: gene APP; Aβ1–42, pre-formed fibrils
Assay: Tyr10 intrinsic fluorescence titration, single-site binding model (positive control)

- Kd: 9.8 ± 1.4 µM
Structure (SMILES): Cc1ccc2c(c1)sc(-c1ccc(N(C)C)cc1)[n+]2C [ThT, thioflavin T]
